Patent US4180506A, “6β-Bromo penicillanic acid” (priority 1978, dated 1979)

Test system: Vibrio percolans MB-1272
Assay: Bilayer agar diffusion test, potentiation of Pen G in the presence of penicillinase
Type: cell-based

CC1(C)S[C@@H]2C(Br)C(=O)N2[C@H]1C(=O)O (stereo partly drawn)
Zone of inhibition, Antibiotic Alone (0.125 μg/ml): 0 mm
Zone of inhibition, Antibiotic + Penase (0.125 μg/ml, Penase 10^4 units/ml): 0 mm
Zone of inhibition, Antibiotic + Penase + Pen G (0.125 μg/ml, Penase 10^4 units/ml, Pen G 5 μg/ml): 0 mm
Zone of inhibition, Antibiotic Alone (0.25 μg/ml): 0 mm
Zone of inhibition, Antibiotic + Penase (0.25 μg/ml, Penase 10^4 units/ml): 0 mm
Zone of inhibition, Antibiotic + Penase + Pen G (0.25 μg/ml, Penase 10^4 units/ml, Pen G 5 μg/ml): 15 mm
Zone of inhibition, Antibiotic Alone (0.5 μg/ml): 0 mm
Zone of inhibition, Antibiotic + Penase (0.5 μg/ml, Penase 10^4 units/ml): 0 mm
Zone of inhibition, Antibiotic + Penase + Pen G (0.5 μg/ml, Penase 10^4 units/ml, Pen G 5 μg/ml): 23 mm
Zone of inhibition, Antibiotic Alone (1 μg/ml): 0 mm
Zone of inhibition, Antibiotic + Penase (1 μg/ml, Penase 10^4 units/ml): 0 mm
Zone of inhibition, Antibiotic + Penase + Pen G (1 μg/ml, Penase 10^4 units/ml, Pen G 5 μg/ml): 26 mm
Zone of inhibition, Antibiotic Alone (2 μg/ml): 0 mm
Zone of inhibition, Antibiotic + Penase (2 μg/ml, Penase 10^4 units/ml): 0 mm
Zone of inhibition, Antibiotic + Penase + Pen G (2 μg/ml, Penase 10^4 units/ml, Pen G 5 μg/ml): 31 mm
Zone of inhibition, Antibiotic Alone (4 μg/ml): 0 mm
Zone of inhibition, Antibiotic + Penase (4 μg/ml, Penase 10^4 units/ml): 0 mm
Zone of inhibition, Antibiotic + Penase + Pen G (4 μg/ml, Penase 10^4 units/ml, Pen G 5 μg/ml): 37 mm
Zone of inhibition, Antibiotic Alone (8 μg/ml): 0 mm
Zone of inhibition, Antibiotic + Penase (8 μg/ml, Penase 10^4 units/ml): 0 mm
Zone of inhibition, Antibiotic Alone (16 μg/ml): 12 mm
Zone of inhibition, Antibiotic + Penase (16 μg/ml, Penase 10^4 units/ml): 11 mm
Zone of inhibition, Antibiotic Alone (31 μg/ml): 23 mm
Zone of inhibition, Antibiotic + Penase (31 μg/ml, Penase 10^4 units/ml): 24 mm
Concentration required to produce a zone of inhibition in the presence of Pen G and Penase (Pen G 5 μg/ml, Penase 10^4 units/ml): 0.25 µg/mL
Potentiation of benzylpenicillin (Pen G) activity (subinhibitory concentrations, penicillinase 10^4 units/ml): markedly potentiated
Synergistic effect greater than clavulanic acid control, weight basis (vs clavulanic acid, with Pen G and penicillinase 10^4 units/ml): approximately 64 fold
